pIC50, pKi: −log10 of the molar value.
Legend:
[1] = biological target: T1, Metabotropic glutamate receptor 5 (Rattus norvegicus, UniProt P31424); assay: (§1) Tested for displacement of [3H]3-methoxy-5-(pyridin-2-ylethynyl) pyridine from Metabotropic glutamate receptor 5 in rat cortical membrane; format: cell membranes
[2] = biological target: T1, Metabotropic glutamate receptor 5; assay: as §1; format: cell membranes; remark: listed apart in the source
How it was run: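 Rat cortical membranes; displacement of [3H]-3-methoxy-5-(pyridin-2-ylethynyl)pyridine bound to native mGlu5. Geometric mean with standard deviation and number of replicates.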

Protein sequences, listed by entry. Tags and fused reporters are not part of them.
UniProt P31424, whole entry: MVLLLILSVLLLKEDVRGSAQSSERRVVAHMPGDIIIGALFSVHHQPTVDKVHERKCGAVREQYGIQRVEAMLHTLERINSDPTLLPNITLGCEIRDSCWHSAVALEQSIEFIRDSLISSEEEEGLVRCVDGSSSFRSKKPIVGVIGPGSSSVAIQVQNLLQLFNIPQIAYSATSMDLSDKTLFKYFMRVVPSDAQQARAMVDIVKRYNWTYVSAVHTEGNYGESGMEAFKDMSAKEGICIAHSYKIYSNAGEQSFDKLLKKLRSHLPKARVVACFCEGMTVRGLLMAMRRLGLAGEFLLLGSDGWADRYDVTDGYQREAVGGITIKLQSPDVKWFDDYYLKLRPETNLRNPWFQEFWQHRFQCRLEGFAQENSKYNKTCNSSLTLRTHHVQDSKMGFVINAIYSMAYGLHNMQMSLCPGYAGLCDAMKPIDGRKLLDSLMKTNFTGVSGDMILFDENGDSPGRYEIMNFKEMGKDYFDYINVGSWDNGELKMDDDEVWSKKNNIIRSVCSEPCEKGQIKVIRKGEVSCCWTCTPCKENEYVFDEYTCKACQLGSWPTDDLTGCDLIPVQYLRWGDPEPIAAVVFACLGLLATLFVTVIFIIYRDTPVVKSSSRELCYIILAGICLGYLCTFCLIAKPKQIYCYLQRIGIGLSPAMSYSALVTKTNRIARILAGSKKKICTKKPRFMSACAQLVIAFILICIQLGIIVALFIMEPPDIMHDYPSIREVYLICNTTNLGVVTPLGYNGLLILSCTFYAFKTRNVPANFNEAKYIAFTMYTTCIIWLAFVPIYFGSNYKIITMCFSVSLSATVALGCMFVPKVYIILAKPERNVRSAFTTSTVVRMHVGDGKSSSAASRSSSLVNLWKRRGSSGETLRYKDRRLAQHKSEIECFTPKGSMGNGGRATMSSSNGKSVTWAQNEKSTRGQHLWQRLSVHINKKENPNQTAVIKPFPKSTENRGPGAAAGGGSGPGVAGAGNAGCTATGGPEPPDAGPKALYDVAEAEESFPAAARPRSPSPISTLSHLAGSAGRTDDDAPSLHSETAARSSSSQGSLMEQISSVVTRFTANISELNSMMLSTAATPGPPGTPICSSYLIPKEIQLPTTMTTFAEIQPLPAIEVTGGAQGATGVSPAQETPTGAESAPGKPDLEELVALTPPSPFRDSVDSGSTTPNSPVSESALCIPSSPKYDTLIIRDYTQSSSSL
UniProt P41594, whole entry: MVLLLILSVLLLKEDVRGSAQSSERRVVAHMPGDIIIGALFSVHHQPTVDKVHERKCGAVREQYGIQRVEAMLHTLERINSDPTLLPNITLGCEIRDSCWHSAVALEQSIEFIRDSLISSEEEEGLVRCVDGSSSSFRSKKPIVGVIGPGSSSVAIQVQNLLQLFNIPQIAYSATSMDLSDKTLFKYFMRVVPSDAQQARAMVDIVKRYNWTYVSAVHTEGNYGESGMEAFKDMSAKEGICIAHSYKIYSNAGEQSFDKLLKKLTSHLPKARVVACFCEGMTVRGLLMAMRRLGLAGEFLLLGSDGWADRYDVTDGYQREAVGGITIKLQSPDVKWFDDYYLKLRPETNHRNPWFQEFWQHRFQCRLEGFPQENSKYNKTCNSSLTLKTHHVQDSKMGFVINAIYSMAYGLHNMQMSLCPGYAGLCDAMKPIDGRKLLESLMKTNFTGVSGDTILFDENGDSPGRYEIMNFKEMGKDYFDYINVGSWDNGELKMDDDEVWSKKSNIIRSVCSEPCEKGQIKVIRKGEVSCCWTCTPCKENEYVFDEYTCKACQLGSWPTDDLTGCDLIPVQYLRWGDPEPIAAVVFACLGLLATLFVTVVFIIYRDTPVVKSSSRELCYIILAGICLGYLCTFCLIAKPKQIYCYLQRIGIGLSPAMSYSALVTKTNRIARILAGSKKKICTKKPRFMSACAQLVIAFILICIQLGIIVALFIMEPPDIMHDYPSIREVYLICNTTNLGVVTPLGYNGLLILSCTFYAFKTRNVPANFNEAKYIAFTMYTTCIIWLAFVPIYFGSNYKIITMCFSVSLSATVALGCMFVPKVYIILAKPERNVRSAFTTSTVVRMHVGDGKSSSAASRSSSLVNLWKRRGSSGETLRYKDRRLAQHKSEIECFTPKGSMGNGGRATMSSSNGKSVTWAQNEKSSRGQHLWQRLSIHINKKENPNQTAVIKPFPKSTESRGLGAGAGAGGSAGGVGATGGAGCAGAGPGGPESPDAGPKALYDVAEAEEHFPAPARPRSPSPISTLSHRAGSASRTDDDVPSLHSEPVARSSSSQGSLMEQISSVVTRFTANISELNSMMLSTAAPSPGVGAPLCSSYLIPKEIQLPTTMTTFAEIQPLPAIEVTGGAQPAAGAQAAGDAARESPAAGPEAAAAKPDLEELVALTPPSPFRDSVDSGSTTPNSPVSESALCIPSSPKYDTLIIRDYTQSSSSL

[3] = biological target: Metabotropic glutamate receptor 5 (Homo sapiens, UniProt P41594); assay: Tested in vitro against human recombinant Metabotropic glutamate receptor 5 stably expressed in LtK cells by [Ca2+] flux assay using glutamate as agonist

Compound	pKi [1]	pKi [2]	pIC50 [3]
Cc1cccc(C#Cc2ccccc2)n1	7.92		
Cc1nc(C#Cc2cccnc2)cs1		7.80	8.30

Reference: ChEMBL document CHEMBL1145097, “3-[(2-Methyl-1,3-thiazol-4-yl)ethynyl]-pyridine: a potent and highly selective metabotropic glutamate subtype 5 receptor antagonist with anxiolytic activity” (J Med Chem, 2003)
